{"sequences": {"note": "By UniProt entry, the sequences of proteins in these tests, tags left out. Residues count along the entry.", "UniProt P08571, 20-375": "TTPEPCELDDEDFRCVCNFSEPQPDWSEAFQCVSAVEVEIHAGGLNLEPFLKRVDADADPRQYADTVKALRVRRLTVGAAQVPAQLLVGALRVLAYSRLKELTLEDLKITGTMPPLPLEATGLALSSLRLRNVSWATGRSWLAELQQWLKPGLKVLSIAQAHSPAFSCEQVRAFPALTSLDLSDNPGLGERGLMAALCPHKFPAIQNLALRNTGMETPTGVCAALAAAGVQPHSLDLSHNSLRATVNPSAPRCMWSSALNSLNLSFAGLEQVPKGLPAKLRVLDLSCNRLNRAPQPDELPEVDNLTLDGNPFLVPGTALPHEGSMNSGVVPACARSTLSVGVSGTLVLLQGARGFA"}, "source": "patent US5705398A", "about": "“Methods for identifying inhibitors of LPS-mediated LBP binding” (The Scripps Research Institute, priority 1994, dated 1998)", "molecular_target": "T1, recombinant human soluble CD14 (Homo sapiens, UniProt P08571)", "T1 construct": "made in house; host or cells: CHO cells (clone 523, vector pEE14), secreted into culture medium", "test": "F-LPS/CD14 fluorescence assay comparing LBP with other LPS-binding proteins", "conditions": "protein 300 ng/ml, CD14 0 to 10 ug/ml, 20 ng/ml F-LPS", "procedure": "The FI effects via the binding of F-LPS to LBP were also compared in the present assay with other proteins shown to bind LPS including human serum albumin (HSA), apotransferrin, lysozyme, and bactericidal-permeability increasing protein (BPI) in place of polypeptide. For the assay, LBP or the other known LPS-binding proteins were added to the admixture at a concentration of 300 nanograms/milliliter (ng/ml) and were separately admixed with varying amounts the recombinant human soluble CD14 ranging in concentration from 0 to 10 micrograms/milliliter (ug/ml).\nTo this admixture, 20 ng/ml of F-LPS prepared in Example 1 were admixed to form a binding admixture. Fluorescence measurements were then performed as described above to determine the effect of LBP and CD14 on the FI of F-LPS."}
{"substance": "human serum albumin", "values": [{"measurement": "effect on FI of F-LPS with CD14 when replacing LBP", "value": "no effect was detected"}]}
